## Ab-14 heavy chain CDR variants: yeast mating affinities

Reference: Engelhart et al. 2022, doi:10.1038/s41597-022-01779-4. File: FLAb, binding data.

All variants were tested on one target, the spike HR2 peptide PDVDLGDISGINAS (SARS-CoV-2).

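The parent was found by panning a naive human phage display library on the peptide. Library AAYL49 holds single substitutions and randomly drawn double and triple substitutions in the CDRs. The scFvs were displayed on barcoded MATa yeast, the peptide on MATalpha yeast. Pairs that bind mate more often; barcode pairs of the diploids are counted by sequencing. A regression on co-assayed BCL2-family reference pairs converts the normalised counts of each replicate to an apparent Kd. The assay was run in three technical replicates.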

Parent scFv Ab-14: VH joined to VL by a 15-residue (Gly4Ser)3 linker. Changes lie in the heavy chain CDRs alone.
VH: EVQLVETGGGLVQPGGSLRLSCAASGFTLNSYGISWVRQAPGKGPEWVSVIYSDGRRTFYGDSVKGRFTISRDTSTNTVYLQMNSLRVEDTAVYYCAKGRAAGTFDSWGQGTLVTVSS
VL: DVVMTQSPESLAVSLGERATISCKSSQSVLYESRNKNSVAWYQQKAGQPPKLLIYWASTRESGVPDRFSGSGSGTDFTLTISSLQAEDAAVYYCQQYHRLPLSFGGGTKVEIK

Sequences are complete VH domains. Scale: log10 of Kd in nM, estimated from mating counts; low values are strong binders. "nd" marks a missing value. The strain was present, yet no cells mated with the target were sequenced in that replicate, which points to weak or no binding.

| # | VH | replicates, log10 nM | signal with controls |
|---|---|---|---|
| 1 | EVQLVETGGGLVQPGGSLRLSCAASGFTLNSYGISWVRQAPGKGPEWVSVIYSDGRRTRYGDSVKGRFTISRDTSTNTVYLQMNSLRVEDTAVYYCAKGRAAGTFDSWGQGTLVTVSS | 3.58 2.91 3.02 | 3 of 9 (4.85) |
| 2 | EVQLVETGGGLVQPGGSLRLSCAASGFTLNSYGISWVRQAPGKGPEWVSVIYSDGRRTFYGFSVKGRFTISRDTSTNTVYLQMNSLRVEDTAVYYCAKMWAAGTFDSWGQGTLVTVSS | nd nd nd | 2 of 9 (3.81) |
| 3 | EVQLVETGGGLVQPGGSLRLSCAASGFTLFSYGISWVRQAPGKGPEWVSVQYSDGRRTFYGDSVKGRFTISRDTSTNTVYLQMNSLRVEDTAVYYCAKGAAAGTFDSWGQGTLVTVSS | nd nd nd | 3 of 9 (3.85) |
| 4 | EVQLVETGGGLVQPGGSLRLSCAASGFTLNSRFISWVRQAPGKGPEWVSVIYSDGRRTFYGDSVKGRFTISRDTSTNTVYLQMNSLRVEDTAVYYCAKGRAAGTFFSWGQGTLVTVSS | nd 3.74 nd | 1 of 9 (4.10) |
| 5 | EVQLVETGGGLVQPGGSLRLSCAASGFTGNSYGISWVRQAPGKGPEWVSDIYSDGRRTFYGDSVKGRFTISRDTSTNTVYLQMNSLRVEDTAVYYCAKGRAAGTFDSWGQGTLVTVSS | nd nd nd | 1 of 9 (2.94) |
| 6 | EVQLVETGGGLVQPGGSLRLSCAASGFTLNSYGLSWVRQAPGKGPEWVSVIYSDGRRTFYGDSVIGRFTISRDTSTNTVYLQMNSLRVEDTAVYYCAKGRVAGTFDSWGQGTLVTVSS | nd nd nd | 0 of 9 |
| 7 | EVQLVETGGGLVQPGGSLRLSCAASGFGLNSGGISWVRQAPGKGPEWVSVIYSDGRRTFYGDSVKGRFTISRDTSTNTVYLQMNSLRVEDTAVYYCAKGRAAGTADSWGQGTLVTVSS | nd nd 4.24 | 2 of 9 (4.19) |
| 8 | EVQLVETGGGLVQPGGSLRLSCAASGFTLLSYGNSWVRQAPGKGPEWVSVIYSDGRRTFYGDSVKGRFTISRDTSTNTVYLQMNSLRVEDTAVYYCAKGRAAGTLDSWGQGTLVTVSS | nd 3.62 5.68 | 4 of 9 (3.71) |
| 9 | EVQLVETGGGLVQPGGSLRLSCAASGFTLNSYGISWVRQAPGKGPEWVSVIYSDWRRTFYGDSVKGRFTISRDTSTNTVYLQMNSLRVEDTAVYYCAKGFAAGAFDSWGQGTLVTVSS | nd 2.58 nd | 2 of 9 (3.62) |
| 10 | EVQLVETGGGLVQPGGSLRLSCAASGATLNSMGISWVRQAPGKGPEWVSLIYSDGRRTFYGDSVKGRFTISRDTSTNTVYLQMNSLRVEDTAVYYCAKGRAAGTFDSWGQGTLVTVSS | nd nd 4.16 | 2 of 9 (3.92) |
| 11 | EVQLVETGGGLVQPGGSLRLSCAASGFTLNSYGISWVRQAPGKGPEWVSVIYMDYRRTFYGDSVKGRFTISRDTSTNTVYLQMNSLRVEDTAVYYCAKNRAAGTFDSWGQGTLVTVSS | nd nd nd | 0 of 9 |
| 12 | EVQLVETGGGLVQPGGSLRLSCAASGFTLNSYTISWVRQAPGKGPEWVSVIYSDGRRTFYGDSMKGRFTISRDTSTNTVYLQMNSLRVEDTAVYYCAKSRAAGTFDSWGQGTLVTVSS | nd 3.63 5.70 | 2 of 9 (4.18) |
| 13 | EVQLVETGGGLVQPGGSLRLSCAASGFTLNSRGISWVRQAPGKGPEWVSVIYSDGRRTFYGDSVKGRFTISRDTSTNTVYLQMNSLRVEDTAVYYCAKGRARGTFDSWGQGTLVTVSS | 5.47 nd 5.54 | 1 of 9 (3.17) |
| 14 | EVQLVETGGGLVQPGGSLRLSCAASGFTLNSYGLSWVRQAPGKGPEWVSVIYSDGRRTFYGDSVRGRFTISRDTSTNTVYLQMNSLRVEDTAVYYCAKGRAAGTKDSWGQGTLVTVSS | nd nd nd | 2 of 9 (3.64) |
| 15 | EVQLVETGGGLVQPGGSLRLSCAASGFTLNSLGISWVRQAPGKGPEWVSVIYSDGRKTFYGDSVKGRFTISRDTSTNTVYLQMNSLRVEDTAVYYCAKGRAAGTFPSWGQGTLVTVSS | nd nd nd | 0 of 9 |
| 16 | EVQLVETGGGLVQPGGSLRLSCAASGFTLNSYGISWVRQAPGKGPEWVSVIYDDGRRTFYGDSVKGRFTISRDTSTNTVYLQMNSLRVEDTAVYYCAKGRAAGHLDSWGQGTLVTVSS | nd nd 5.61 | 3 of 9 (3.18) |
| 17 | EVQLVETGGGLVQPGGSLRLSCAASGFTLNSYGISWVRQAPGKGPEWVSVIYSDGRRNFYADSVKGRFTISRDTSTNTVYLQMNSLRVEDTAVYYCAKGRLAGTFDSWGQGTLVTVSS | 0.26 0.59 0.42 | 1 of 9 (3.55) |
| 18 | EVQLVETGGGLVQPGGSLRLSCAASGFTLNSYGISWVRQAPGKGPEWVSVIYSDGHRTFYDDSVKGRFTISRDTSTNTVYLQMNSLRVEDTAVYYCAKGRAAGTHDSWGQGTLVTVSS | nd nd nd | 0 of 9 |
| 19 | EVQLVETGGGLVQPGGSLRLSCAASGFTLNSYGISWVRQAPGKGPEWVSVIFSDGRRTFYGDSVKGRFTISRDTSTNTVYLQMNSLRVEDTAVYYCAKGRAAGTFDDWGQGTLVTVSS | 1.65 1.84 1.96 | 1 of 9 (4.16) |
| 20 | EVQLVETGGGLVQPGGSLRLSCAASGFALTSYGISWVRQAPGKGPEWVSVIYSDGRRTFYGDSVKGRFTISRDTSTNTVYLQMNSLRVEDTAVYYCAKGRAAGTFDRWGQGTLVTVSS | 1.03 1.04 1.03 | 0 of 9 |
| 21 | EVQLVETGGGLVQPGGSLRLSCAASGFTLNCYGISWVRQAPGKGPEWVSVIYSDGLRVFYGDSVKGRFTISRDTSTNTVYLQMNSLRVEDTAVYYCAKGRAAGTFDSWGQGTLVTVSS | 3.04 nd 3.10 | 1 of 9 (3.15) |
| 22 | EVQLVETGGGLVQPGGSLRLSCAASGFTLNSYGISWVRQAPGKGPEWVSVIYLDLRRTFYGDRVKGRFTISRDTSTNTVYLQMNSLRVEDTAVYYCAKGRAAGTFDSWGQGTLVTVSS | nd nd nd | 3 of 9 (3.26) |
| 23 | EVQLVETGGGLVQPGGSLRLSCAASGFTLNSDGISWVRQAPGKGPEWVSVIYSDGRRTFYGNMVKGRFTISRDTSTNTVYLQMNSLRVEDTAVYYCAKGRAAGTFDSWGQGTLVTVSS | nd 3.06 nd | 2 of 9 (3.56) |

Picked from the list: the 2 lowest averages where every replicate gave a value.

{"VH": "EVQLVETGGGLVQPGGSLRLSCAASGFTLNSYGISWVRQAPGKGPEWVSVIYSDGRRNFYADSVKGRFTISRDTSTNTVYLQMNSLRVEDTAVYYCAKGRLAGTFDSWGQGTLVTVSS", "replicates, log10 nM": "0.26 0.59 0.42", "signal with controls": "1 of 9 (3.55)"}
{"VH": "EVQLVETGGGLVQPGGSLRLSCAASGFALTSYGISWVRQAPGKGPEWVSVIYSDGRRTFYGDSVKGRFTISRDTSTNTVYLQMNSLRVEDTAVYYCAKGRAAGTFDRWGQGTLVTVSS", "replicates, log10 nM": "1.03 1.04 1.03", "signal with controls": "0 of 9"}

For reference, the parent read 0.65 as the reference entry and 4.11 (one replicate of three) as a member of this library. Background: pairings of library AAYL49 with three empty control strains gave a value in 15% of cases (median 4.06, 5th percentile 2.83). Values in that range, when seen in few replicates, are hard to tell from nonspecific mating. For each scFv, signals with the empty controls are counted beside the result, with their mean in brackets.